From ChEMBL document CHEMBL1133403 (Bioorg Med Chem Lett, 2000)

What was measured:
Progesterone receptor [1] = biological target: T1, Progesterone receptor (Homo sapiens, UniProt P06401); assay: Antagonist activity against human progesterone receptor (hPR) in T47D human breast cancer cell line; NA=not active; format: functional, cell-based
T1 sequence (P06401 whole entry): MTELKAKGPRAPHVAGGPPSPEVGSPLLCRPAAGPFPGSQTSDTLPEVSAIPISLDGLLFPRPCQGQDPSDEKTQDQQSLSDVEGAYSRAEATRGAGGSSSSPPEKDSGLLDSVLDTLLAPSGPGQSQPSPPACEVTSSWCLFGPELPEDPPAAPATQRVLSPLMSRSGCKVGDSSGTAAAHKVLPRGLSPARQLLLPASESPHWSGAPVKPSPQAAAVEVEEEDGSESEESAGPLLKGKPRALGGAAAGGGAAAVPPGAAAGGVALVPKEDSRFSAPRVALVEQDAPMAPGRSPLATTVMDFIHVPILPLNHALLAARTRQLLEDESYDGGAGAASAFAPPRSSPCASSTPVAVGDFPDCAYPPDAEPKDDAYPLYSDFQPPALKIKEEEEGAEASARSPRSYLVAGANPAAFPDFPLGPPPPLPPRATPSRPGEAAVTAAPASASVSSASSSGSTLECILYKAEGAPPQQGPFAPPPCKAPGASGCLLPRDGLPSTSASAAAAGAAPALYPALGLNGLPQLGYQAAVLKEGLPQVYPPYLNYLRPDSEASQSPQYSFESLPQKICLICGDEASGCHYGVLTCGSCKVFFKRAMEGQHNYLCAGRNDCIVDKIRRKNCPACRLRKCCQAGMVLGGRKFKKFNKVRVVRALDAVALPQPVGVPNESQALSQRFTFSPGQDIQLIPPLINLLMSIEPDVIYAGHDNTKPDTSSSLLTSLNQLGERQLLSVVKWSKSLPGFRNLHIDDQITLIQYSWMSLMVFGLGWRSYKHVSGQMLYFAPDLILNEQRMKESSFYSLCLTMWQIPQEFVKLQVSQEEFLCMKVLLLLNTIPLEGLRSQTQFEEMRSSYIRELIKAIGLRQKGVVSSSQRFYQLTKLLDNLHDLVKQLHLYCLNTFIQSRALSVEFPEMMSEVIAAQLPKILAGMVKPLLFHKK

Progesterone receptor [2] = biological target: T1, Progesterone receptor; assay: Antagonist activity against human progesterone receptor (hPR) expressed in CV-1 cells; NA=not active; format: functional, cell-based

## CC(=O)[C@H]1CC[C@H]2[C@@H]3CCC4=CC(=O)CC[C@]4(C)[C@H]3CC[C@]12C [PROGESTERONE]
Progesterone receptor [1]
  IC50: Not Active
Progesterone receptor [2]
  IC50: Not Active
